Assay results taken from US10792277B2, “Methods of treatment of fibrosis and cancers” (GENFIT, priority 2013, dated 2020).

Tested on: VEGFR2 gene expression in hHSC
Experiment: Gene expression (quantitative RT-PCR) in TGFβ1-activated hHSC
Format: cell-based, human
Conditions: 3 μM; TGFβ1 1 ng/mL, 24 hours, serum free
Procedure: The human primary hepatic stellate cells (hHSC) (ScienCell) were cultured under standard conditions, as described above. For experiments to determine gene expression patterns, hHSC were plated at a density of 1.4×10^5 cells/well into 12-well plates and were cultured overnight. […] Cells were treated with compounds in addition to TGFβ1 (1 ng/mL) in a serum-free and SteCGS-free medium for 24 hours.
Total RNA was isolated using RNeasy® Mini Kit (Qiagen) following manufacturer's instructions.
Quantitative PCR was then carried out using the MyiQ Single-Color Real-Time PCR Detection or the iCycler iQ Multiplex Real-Time PCR Detection System (both systems from Biorad). Briefly, PCR reactions were performed in 96 Well plates on 5 μL of 5× diluted reverse transcription mix using the iQ SYBR Green Supermix kit. The experimental conditions were: 25 μL of volume reaction, 3 mM of MgCl2, and 0.5 μL each of reverse and forward primers (10 pMol).
Expression levels were normalized using the expression of 36B4 gene as reference.
Expression levels were determined using the standard curve equation for both the housekeeping gene and the target gene (taking into account the specific PCR efficiency of each target gene).
The induction factor vs TGFβ1 was determined as follow: […]

Compound: CNC(=O)c1cc(Oc2ccc(NC(=O)Nc3ccc(Cl)c(C(F)(F)F)c3)cc2)ccn1 [Sorafenib]
- Emax, reduction in VEGFR2 gene expression vs hHSC treated with TGFβ1 alone: −73%
